Experimental data published in US9732063B2, “Kinase inhibitors” (RESPIVERT LIMITED, priority 2012, dated 2017).

The chains behind the UniProt entries cited, without tags or fusion partners. Where a name states a change or a piece, a line headed by the entry shows the natural chain unless it says otherwise.
UniProt P12931, whole entry, looked up: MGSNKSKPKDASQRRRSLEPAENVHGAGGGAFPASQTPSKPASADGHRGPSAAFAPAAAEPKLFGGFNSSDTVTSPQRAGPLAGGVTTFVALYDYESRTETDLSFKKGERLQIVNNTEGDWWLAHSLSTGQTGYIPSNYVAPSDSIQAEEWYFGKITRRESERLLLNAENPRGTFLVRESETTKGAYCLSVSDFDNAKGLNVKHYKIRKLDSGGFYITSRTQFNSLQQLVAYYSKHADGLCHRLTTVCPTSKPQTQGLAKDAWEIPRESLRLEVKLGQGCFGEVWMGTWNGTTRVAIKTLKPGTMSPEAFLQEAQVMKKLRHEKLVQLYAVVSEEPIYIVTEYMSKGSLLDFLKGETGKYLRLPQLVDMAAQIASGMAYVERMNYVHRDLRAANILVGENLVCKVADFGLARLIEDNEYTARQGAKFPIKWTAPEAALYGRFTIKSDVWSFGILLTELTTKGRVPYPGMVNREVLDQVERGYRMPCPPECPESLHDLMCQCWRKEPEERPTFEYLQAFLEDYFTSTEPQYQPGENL
UniProt P49840: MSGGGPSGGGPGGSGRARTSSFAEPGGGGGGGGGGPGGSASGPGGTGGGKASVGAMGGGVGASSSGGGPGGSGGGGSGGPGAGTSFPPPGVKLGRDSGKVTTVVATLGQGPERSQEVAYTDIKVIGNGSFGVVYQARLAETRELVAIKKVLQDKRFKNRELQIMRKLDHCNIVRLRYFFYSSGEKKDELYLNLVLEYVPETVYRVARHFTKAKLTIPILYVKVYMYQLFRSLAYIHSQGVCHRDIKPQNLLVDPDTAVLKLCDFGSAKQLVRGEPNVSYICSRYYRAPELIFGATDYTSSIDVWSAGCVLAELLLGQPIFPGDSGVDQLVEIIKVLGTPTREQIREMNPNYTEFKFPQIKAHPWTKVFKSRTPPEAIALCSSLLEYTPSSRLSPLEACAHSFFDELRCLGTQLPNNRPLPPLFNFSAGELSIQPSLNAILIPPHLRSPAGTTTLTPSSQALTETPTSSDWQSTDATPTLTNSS

What was measured:
PBMCs [1] = test: IL-2 and IFN gamma release in CD3/CD28 stimulated PBMC cells; assay type: cell-based; details: Homo sapiens, read-out: IC50 Values for Inhibition of Cytokine Release PBMCs IFNγ
Procedure: PBMCs from healthy subjects are separated from whole blood using a density gradient (Lymphoprep, Axis-Shield Healthcare). Cells are added to a 96 well plate pre-coated with a mixture of CD3/CD38 monoclonal antibodies (0.3 μg/mL eBioscience and 3 μg/mL BD Pharmingen respectively). Compound at the desired concentration is then added to the wells and the plate left for 3 days under normal tissue culture conditions. Supernatants are harvested and IL-2 and IFN gamma release determined by Sandwich ELISA (Duo-set, R&D System). The IC50 is determined from the dose response curve.

c-Src = c-Src (Homo sapiens (Human), UniProt P12931); test: c-Src enzyme inhibition (Z-LYTE FRET); assay type: biochemical
Procedure: (§1) The enzyme inhibitory activities of compounds disclosed herein are determined by FRET using synthetic peptides labelled with both donor and acceptor fluorophores (Z-LYTE, Invitrogen Ltd., Paisley, UK).
(§2) The relevant enzyme (3000 ng/mL or 2000 ng/mL respectively, 2.5 μL) is incubated with the test compound (either 4 μg/mL, 0.4 μg/mL, 0.04 μg/mL, or 0.004 μg/mL, 2.5 μL each) for 2 hr at RT. The FRET peptides (8 μM, 2.5 μL), and appropriate ATP solutions (2.5 μL, 800 μM for c-Src, and 60 μM ATP for Syk) are then added to the enzymes/compound mixtures and incubated for 1 hr. Development reagent (protease, 5 μL) is added for 1 hr prior to detection in a fluorescence microplate reader (Varioskan® Flash, ThermoFisher Scientific).
(§3) In all cases, the site-specific protease cleaves non-phosphorylated peptide only and eliminates the FRET signal. Phosphorylation levels of each reaction are calculated using the ratio of coumarin emission (donor) over fluorescein emission (acceptor), for which high ratios indicate high phosphorylation and low ratios indicate low phosphorylation levels.

Syk = Syk (Homo sapiens (Human), UniProt P43405); test: Syk enzyme inhibition (Z-LYTE FRET); assay type: biochemical
Procedure: as §1, §2, §3

GSK3α = GSK3α (Homo sapiens (Human), UniProt P49840); test: GSK 3α enzyme inhibition (Z-LYTE FRET, Method 2); assay type: biochemical
Procedure: as §1
The inhibitory activities of compounds of the invention against the GSK 3α enzyme isoform (Invitrogen), are evaluated by determining the level of activation/phosphorylation of the target peptide. The GSK3-α protein (500 ng/mL, 2.5 μL) is mixed with the test compound (2.5 μL at either 4 μg/mL, 0.4 μg/mL, 0.04 μg/mL, or 0.004 μg/mL) for 2 hr at RT. The FRET peptide (8 μM, 2.5 μL), which is a phosphorylation target for GSK3α, and ATP (40 μM, 2.5 μL) are then added to the enzyme/compound mixture and the resulting mixture incubated for 1 hr. Development reagent (protease, 5 μL) is added for 1 hr prior to detection in a fluorescence microplate reader (Varioskan® Flash, ThermoFisher Scientific).
as §3

PBMCs [2] = test: LPS-induced TNFα/IL-8 release in PBMC cells; assay type: cell-based; details: Homo sapiens, read-out: IC50 Values for Inhibition of Cytokine Release PBMCs IL-8
Procedure: Peripheral blood mononuclear cells (PBMCs) from healthy subjects are separated from whole blood using a density gradient (Lymphoprep, Axis-Shield Healthcare). The PBMCs are seeded in 96 well plates and treated with compounds at the desired concentration for 2 hours before addition of 1 ng/mL LPS (Escherichia Coli O111:B4 from Sigma Aldrich) for 24 hours under normal tissue culture conditions (37° C., 5% CO2). The supernatant is harvested for determination of IL-8 and TN Fa concentrations by sandwich ELISA (Duo-set, R&D systems) and read on the fluorescence microplate reader (Varioskan® Flash, ThermoFisher Scientific). The concentration at 50% inhibition (IC50) of IL-8 and TNFα production is calculated from the dose response curve.

SMILES	IC50 (PBMCs [1])	IC50 (c-Src)	IC50 (Syk)	IC50 (GSK3α)	IC50 (PBMCs [2])
COc1cc(Nc2nccc(Oc3ccc(NC(=O)Nc4cc(C(C)(C)C)nn4-c4ccc(C)cc4)c4ccccc34)n2)cc(SCCCO)c1 [Example 48, 1-(3-(tert-Butyl)-1-(p-tolyl)-1H-pyrazol-5-yl)-3-(4-((2-((3-((3-Hydroxypropyl)thio)-5-methoxyphenyl)amino)pyrimidin-4-yl)oxy)naphthalen-1-yl)urea]	2.2 nM	22 nM			
COc1cc(Nc2nccc(Oc3ccc(NC(=O)Nc4cc(C(C)(C)C)nn4-c4ccc(C)cc4)c4ccccc34)n2)cc(SCCO)c1 [Example 55, 1-(3-(tert-Butyl)-1-(p-tolyl)-1H-pyrazol-5-yl)-3-(4-((2-((3-((2-hydroxyethyl)thio)-5-methoxyphenyl)amino)pyrimidin-4-yl)oxy)naphthalen-1-yl)urea]		23 nM			
COc1cc(Nc2nccc(Oc3ccc(NC(=O)Nc4cc(C(C)(C)C)nn4-c4ccc(C)cc4)c4ccccc34)n2)cc(OCCOCCOCCN2CCOCC2)c1 [Example 58, 1-(3-(tert-Butyl)-1-(p-tolyl)-1H-pyrazol-5-yl)-3-(4-((2-((3-methoxy-5-(2-(2-(2-morpholinoethoxy)ethoxy)ethoxy)phenyl)amino)pyrimidin-4-yl)oxy)naphthalen-1-yl)urea]		11 nM	28 nM	2810 nM	1.1 nM
COc1ccc(-n2nc(C(C)(C)C)cc2NC(=O)Nc2ccc(Oc3ccnc(Nc4cc(OC)cc(S(=O)(=O)C5CC5)c4)n3)c3ccccc23)cc1 [Example 70, 1-(3-(tert-Butyl)-1-(4-methoxyphenyl)-1H-pyrazol-5-yl)-3-(4-((2-((3-(cyclopropylsulfonyl)-5-methoxyphenyl)amino)pyrimidin-4-yl)oxy)naphthalen-1-yl)urea]		48 nM			
COCCOCCOCCOc1cc(Nc2nccc(Oc3ccc(NC(=O)Nc4cc(C(C)(C)C)nn4-c4ccc(C)cc4)c4ccccc34)n2)cc(OC)c1Cl [Example 72, 1-(3-(tert-Butyl)-1-(p-tolyl)-1H-pyrazol-5-yl)-3-(4-((2-((4-chloro-3-methoxy-5-(2-(2-(2-methoxyethoxyl)ethoxy)ethoxy)phenyl)amino)pyrimidin-4-yl)oxy)naphthalen-1-yl)urea]		39 nM			3.9 nM
